Source: ChEMBL document CHEMBL6078683, “Discovery of MT-7117 (Dersimelagon Phosphoric Acid): A Novel, Potent, Selective, and Nonpeptidic Orally Available Melanocortin 1 Receptor Agonist” (J Med Chem, 2024)

How the values were obtained:
Type in all cases: functional, organism-based
Cynomolgus monkey [1] = experiment: Induction of pigmentation in cynomolgous monkey at 30 mg/kg, po measured for 1 week; settings: Macaca fascicularis, time 1.0 weeks
Cynomolgus monkey [2] = experiment: Induction of pigmentation in cynomolgous monkey at 1 to 3 mg/kg, po for 4 weeks followed by treatment discontinuation measured after 2 weeks; settings: Macaca fascicularis, dose 1-3 mg/kg
Cynomolgus monkey [3] = experiment: Induction of pigmentation in cynomolgous monkey at 10 mg/kg, po measured for 3 weeks; settings: Macaca fascicularis
Cynomolgus monkey [4] = experiment: Induction of pigmentation in cynomolgous monkey at 10 mg/kg, po for 4 weeks followed by treatment discontinuation measured after 4 weeks; settings: Macaca fascicularis
Cynomolgus monkey [5] = experiment: Induction of pigmentation in cynomolgous monkey at 30 mg/kg, po for 3 weeks followed by treatment discontinuation measured after 16 weeks; settings: Macaca fascicularis
Cynomolgus monkey [6] = experiment: Induction of pigmentation in cynomolgous monkey at 1 to 3 mg/kg, po measured for 4 weeks; settings: Macaca fascicularis, dose 1-3 mg/kg

COC[C@H]1CN(C(=O)[C@]2(F)CN(C3CCCC3)C[C@H]2c2ccc(OC)cc2)C[C@@H]1c1ccc(C(F)(F)F)cc1N1CCC(C(=O)O)CC1 was tested, and the Activity (Cynomolgus monkey [1]) was “Active”, the Activity (Cynomolgus monkey [2]) was “inactive” and the Activity (Cynomolgus monkey [3]) was “Active”. For the same compound, the Activity (Cynomolgus monkey [4]) was “inactive”, the Activity (Cynomolgus monkey [5]) was “inactive” and the Activity (Cynomolgus monkey [6]) was “Active”.

Activity calls are given as the source filed them. The rule behind the calls is not given here.
